Source: patent publication US5670479A, “α-ketoamide derivatives as inhibitors of thrombosis” (Corvas International, Inc., priority 1994, dated 1997)

Columns and labels:
[1] = system: baboons; assay: Baboon hemostatic function (template bleeding time, coagulation tests)
[2] = target: T1, a-thrombin (Homo sapiens, UniProt P00734); assay: Inhibition of fluid-phase thrombin (FPA generation in citrated plasma); assay type: biochemical; details: 60 min, 37° C., compound 8 18.75 nM, Hirulog-1 500 nM, rHIR 4 nM, FIG. 5A
Experimental: I. et.al. J. Clin. Invest., 86: 385-391 (1990). Human a-thrombin (2 U/ml) was incubated with citrated plasma for 60 minutes at 37° C. in the absence or presence of varying concentrations of each of the inhibitors. At timed intervals, 100 μl aliquots were removed and the reaction was terminated by the addition of […] (5 μM, final concentration). Unreacted fibrinogen was then precipitated with ethanol, and the ethanol supernatants were assayed for fibrinopeptide A (FPA). Thrombin addition to plasma results in rapid FPA generation which reaches a plateau in minutes as the thrombin is complexed and inactivated by fluid-phase antiproteases.(e.g. antithrombin III).

[3] = system: washed human platelets; assay: Thrombin-induced aggregation in washed human platelets; assay type: cell-based; details: 20 nM (compound 8); same or higher concentrations (Hirulog-1), FIG. 4
Experimental: Washed human platelets were prepared from freshly isolated venous blood obtained from normal, healthy volunteers who had not taken any medication which might affect platelet function, according to the procedure of Connolly, T. M. et al., J. Biol. Chem., 267: 6893. (1992). Inhibitors, were added in a volume of […] to […] of prewarmed washed platelets in a siliconized glass cuvette (Chronolog Corp., Hayertown, Pa.) followed by […] of 0.25M CaCl2. The rate and extent of aggregation were measured for 5-15 minutes by the change in light transmission in a stirred cuvette, following the addition of […] of a-thrombin (final concentration 2 nM), using a Chronolog Whole Blood Aggregometer equipped with the Aggro/Link data acquisition system (Chronolog Corp., Hayertown, Pa.). […] The inhibitory effect of the test compounds was measured over a broad concentration range and is reported as the concentration required to inhibit aggregation by 50% (IC50).

[4] = target: clot-bound a-thrombin (Homo sapiens, UniProt P00734); assay: Inhibition of clot-bound thrombin (FPA generation in citrated plasma); assay type: biochemical; details: 60 min, 37° C., compound 8 18.75 nM, Hirulog-1 500 nM, rHIR 4 nM, FIG. 5B
Experimental: The relative inhibition of fluid-phase and clot-associated thrombin activity by compound 8 was compared to Hirulog-1 (compound 25) and rHIR, using the methodologies of Weitz, J. I. et.al. J. Clin. Invest., 86: 385-391 (1990).
Plasma clots were formed around wire hooks by the addition of CaCl2 (final concentration, 25 mM) to 500 μl aliquots of citrated plasma. After aging the clots for 60 minutes at 37° C. with constant agitation, the clots were washed 10 times with 2 ml aliquots of 0.1M NaCl buffered with 0.05M Tris-HCL, pH 7.4 over an 18 hour period. The washed clots were then incubated in 1 ml aliquots of citrated plasma for 60 minutes at 37° C. in the absence or presence of the various inhibitors. At timed intervals, 100 μl aliquots were removed and the reaction was terminated by the addition of the irreversible serine protease inhibitor, D-phenylalanyl-prolinyl-argininyl-CH2 Cl.
Unreacted fibrinogen was precipitated with ethanol, and the ethanol supernatants were then assayed for FPA.
In this figure, the control (no inhibitor) group (o) was compared to compound 8 at a final concentration of 18.75 nM (1), Hirulog-1 at a final concentration of 500nM (-) and rHIR at a final concentration of 4 nM(t). […]

[5] = system: baboons; assay: Baboon: duration of antithrombotic effect after limited 3 hour infusion; details: 3 hour infusion at 150 nmole/min/kg, followed to 24 hours
[6] = system: baboons; assay: Baboon model of arterial thrombosis (Dacron vascular graft in AV shunt), systemic infusion
[7] = system: rabbit; assay: Rabbit study of venous thrombus growth; assay type: in vivo; details: rabbit jugular vein, 120 min infusion, assessed at 180 min, FIG. 7
Experimental: To determine the duration of antithrombotic efficacy with Compound 8 following the termination of therapy, this inhibitor was compared to several other well-known antithrombotic agents in a rabbit model of venous thrombus growth described by Levi, M.et al., J. Thrombosis Haemostas., 66: 218-221 (1991). In this model, a thrombin-induced clot is formed in the jugular vein of an anesthetized rabbit. […] The infusion of test compound is continued for 120 minutes. Following this time, the extent of fibrin accretion is determined by comparing the amount of radiolabel incorporated into the clot versus circulating in the peripheral blood. At this time, the infusion of the test compound is stopped and the experiment continued for another 60 minutes. At 180 minutes, the extent of fibrin accretion is determined for the contralateral vessel. The data is expressed as "%Thrombus Growth" which is defined as (radioactivity in thrombus/radioactivity in blood)×100. In this protocol, TAP(recombinant tick anticoagulant protein, a selective inhibitor of factor Xa described by […]. et. al., J. Biol. […] Compound 8 was administered in two dosing regimens referred to as "Cmp8H" (1.0 mg/kg bolus +0.5 μg/kg/minute) and as "Cmp8M" (0.5mg/kg bolus +0.5μg/kg/minute). […]

[8] = system: New Zealand white rabbits; assay: Rabbit jugular vein thrombosis/fibrinolysis model; details: 0.5mg/kg bolus + 0.5 μg/kg/min for 120 min, versus rHIR, FIG. 8
[9] = target: T1, a-thrombin; assay: Thrombin-induced clotting of purified fibrinogen; assay type: biochemical; details: for inhibition of thrombin-catalyzed fibrin generation (relative clotting time): purified human fibrinogen, FIG. 2
Experimental: Compound 8 and Hirulog-1 (compound 25) were compared in an assay designed to measure the inhibition of thrombin using purified fibrinogen as the substrate using a modification of the method described by Witting, J. I. et al., Biochem. J. 283:737 (1992). Compound 8 or Hirulog-1 (compound 25) were pre-incubated with a-thrombin over a broad concentration range at 25° C. in 300 mL of Buffer A (150 mM NaCl, 30 mM CaCl2, 10 mM imidazole, 8.8 mg/mL polyethylene glycol (PEG 6000), pH 7.4) for 0, 30, and 60 minutes prior to the addition 100 mL of purified human fibrinogen (American Diagnostica, Greenwich, Conn.) which had been reconstituted in Buffer B (30 mM NaCl, 10 mM imidazole, pH 7.4) to a concentration of 8 ng/mL. The clotting time of fibrinogen following the addition of the thrombin/inhibitor complex was measured optically using the Coag-A-Mate XC automated coagulometer (General Diagnostics, Organon Technica, Oklahoma City, Okla.).
In this figure, Compound 8 (solid symbols) and Hirulog-1 (compound 25; open symbols) were preincubated with a-thrombin for 0 (m,1) 30 (Δ,s), and 60 (o,n) minutes prior to the addition of fibrinogen.
This inhibition is reflected as an increase in the relative clotting time which is the ratio of the […]. The control clotting time in this assay is 16.2±0.78 sec.

[10] = 37 nmol/kg/min group, Pre-dosing
[11] = 75 nmol/kg/min group, Pre-dosing
[12] = 150 nmol/kg/min group, Pre-dosing

SMILES: CCCC(CCC)C(=O)N[C@@H](CC(=O)O)C(=O)N1CCC[C@H]1C(=O)N[C@@H](CCCNC(=N)N)C(=O)C(=O)NCC(=O)NCC(=O)NCC(=O)NCC(=O)NCC(=O)N[C@@H](CC(N)=O)C(=O)NCC(=O)N[C@@H](CC(=O)O)C(=O)N[C@@H](Cc1ccccc1)C(=O)N[C@@H](CCC(=O)O)C(=O)N[C@@H](CCC(=O)O)C(=O)N[C@H](C(=O)N1CCC[C@H]1C(=O)N[C@@H](CCC(=O)O)C(=O)N[C@@H](Cc1ccc(O)cc1)C(=O)N[C@@H](CC(C)C)C(=O)O)[C@@H](C)CC
- Antihemostatic Effects APTT ([1]; control 32 sec): > 300 s
- APTT ([1]; i.v. infusion 37 nmol/kg/min): > 300 s
- APTT ([1]; i.v. infusion 75 nmol/kg/min): > 300 s
- APTT ([1]; i.v. infusion 150 nmol/kg/min): > 300 s
- inhibition of fluid-phase a-thrombin-mediated FPA generation [2]: stable inhibition of FPA generation
- persistence of inhibition of aggregation over the 15 minute assay [3]: stable with no recovery of aggregation
- inhibition of clot-bound a-thrombin-mediated FPA generation [4]: stably inhibit clot-induced FPA generation
- patency of graft segments [5]: remained patent with no reduction in blood flow
- platelet deposition after limited infusion ([5]; FIG. 10): inhibition of platelet deposition for the duration of the experiment
- FPA (fibrinopeptide A) [6, 10]: 3.0 ± 0.9 nM
- PF-4 (platelet factor 4) [6, 10]: 2.6 ng/mL
- TAT (thrombin-antithrombin complexes) [6, 10]: 5.9 ± 2.2 ng/mL
- bTG (b-thromboglobulin) [6, 10]: 2.1 ng/mL
- FPA (fibrinopeptide A) ([6]; 37 nmol/kg/min, 60 min): 1.45 ± 0.6 nM
- PF-4 (platelet factor 4) ([6]; 37 nmol/kg/min, 60 min): 1.5 ng/mL
- TAT (thrombin-antithrombin complexes) ([6]; 37 nmol/kg/min, 60 min): 2.6 ± 0.5 ng/mL
- bTG (b-thromboglobulin) ([6]; 37 nmol/kg/min, 60 min): 1.7 ng/mL
- FPA (fibrinopeptide A) [6, 11]: 3.3 ± 1.7 nM
- PF-4 (platelet factor 4) [6, 11]: 2.8 ng/mL
- TAT (thrombin-antithrombin complexes) [6, 11]: 6.5 ± 2.2 ng/mL
- bTG (b-thromboglobulin) [6, 11]: 2.6 ng/mL
- FPA (fibrinopeptide A) ([6]; 75 nmol/kg/min, 60 min): 0.75 ± 0.07 nM
- PF-4 (platelet factor 4) ([6]; 75 nmol/kg/min, 60 min): 1.9 ng/mL
- TAT (thrombin-antithrombin complexes) ([6]; 75 nmol/kg/min, 60 min): 2.2 ± 1.3 ng/mL
- bTG (b-thromboglobulin) ([6]; 75 nmol/kg/min, 60 min): 1.3 ng/mL
- FPA (fibrinopeptide A) [6, 12]: 1.7 nM
- PF-4 (platelet factor 4) [6, 12]: 1.3 ng/mL
- TAT (thrombin-antithrombin complexes) [6, 12]: 8.4 ± 4.2 ng/mL
- bTG (b-thromboglobulin) [6, 12]: 2.1 ng/mL
- FPA (fibrinopeptide A) ([6]; 150 nmol/kg/min, 60 min): 0.7 ± 0.4 nM
- PF-4 (platelet factor 4) ([6]; 150 nmol/kg/min, 60 min): 1.0 ng/mL
- TAT (thrombin-antithrombin complexes) ([6]; 150 nmol/kg/min, 60 min): 2.0 ± 0.8 ng/mL
- bTG (b-thromboglobulin) ([6]; 150 nmol/kg/min, 60 min): 0.5 ng/mL
- Antithrombotic Effects ED50 ([6]; dose which gives a 50% inhibition of platelet deposition): 35 nmol/kg/min
- Platelet deposition ([6]; i.v. infusion 37 nmol/kg/min, 60 min): 1.57 ± 0.03 × 10^9
- Platelet deposition ([6]; i.v. infusion 75 nmol/kg/min, 60 min): 1.17 ± 0.03 × 10^9
- Platelet deposition ([6]; i.v. infusion 150 nmol/kg/min, 60 min): 0.39 ± 0.14 × 10^9
- % Thrombus Growth after termination of infusion [7]: clear reduction in thrombus size
- extent of endogenous fibrinolysis of a preformed venous clot [8]: greater degree of endogenous fibrinolysis
- proteolytic inactivation by thrombin on preincubation ([9]; preincubation with a-thrombin 0, 30, 60 minutes before fibrinogen): not proteolytically inactivated by thrombin
- inhibition of thrombin-catalyzed fibrin generation (relative clotting time) [9]: dose-dependently inhibit the generation of fibrin
- inhibition of thrombin-catalyzed fibrin generation (relative clotting time) ([9]; listed as compound 8): significantly more potent than Hirulog-1
